Sequences of proteins named here, by UniProt entry; tags and fusion partners are left off.
UniProt P06762, whole entry: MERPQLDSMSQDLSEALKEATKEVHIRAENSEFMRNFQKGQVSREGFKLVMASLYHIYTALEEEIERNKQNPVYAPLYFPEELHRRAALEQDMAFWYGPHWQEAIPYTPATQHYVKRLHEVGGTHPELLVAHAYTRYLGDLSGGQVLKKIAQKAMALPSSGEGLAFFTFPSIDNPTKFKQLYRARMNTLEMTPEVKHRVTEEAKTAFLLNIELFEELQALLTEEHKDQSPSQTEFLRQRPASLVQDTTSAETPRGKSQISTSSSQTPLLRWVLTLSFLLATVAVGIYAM

According to patent US20120020915A1, “Compounds and Methods for Treating Cancer and Diseases of the Central Nervous System” (QUEENS UNIVERSITY AT KINGSTON, priority 2007, published 2012):

Molecular target: HO-1 (rat spleen) (Rattus norvegicus, UniProt P06762)
Experiment: HO enzymatic activity, rat spleen microsomal fraction (CO formation from methemalbumin)
Type: biochemical
Conditions: read-out: IC50 HO-1 (rat spleen/μM), mean ± SD of replicate experiments, tested form: HCl

## Nc1ccccc1SC[C@H]1CO[C@](CCc2ccc(Cl)cc2)(Cn2ccnc2)O1
  IC50: > 100 µM
